Assay results: US20190055295A1

By UniProt entry, the sequences of proteins in these tests, tags left out. Residues count along the entry.
UniProt P23945, 18-695: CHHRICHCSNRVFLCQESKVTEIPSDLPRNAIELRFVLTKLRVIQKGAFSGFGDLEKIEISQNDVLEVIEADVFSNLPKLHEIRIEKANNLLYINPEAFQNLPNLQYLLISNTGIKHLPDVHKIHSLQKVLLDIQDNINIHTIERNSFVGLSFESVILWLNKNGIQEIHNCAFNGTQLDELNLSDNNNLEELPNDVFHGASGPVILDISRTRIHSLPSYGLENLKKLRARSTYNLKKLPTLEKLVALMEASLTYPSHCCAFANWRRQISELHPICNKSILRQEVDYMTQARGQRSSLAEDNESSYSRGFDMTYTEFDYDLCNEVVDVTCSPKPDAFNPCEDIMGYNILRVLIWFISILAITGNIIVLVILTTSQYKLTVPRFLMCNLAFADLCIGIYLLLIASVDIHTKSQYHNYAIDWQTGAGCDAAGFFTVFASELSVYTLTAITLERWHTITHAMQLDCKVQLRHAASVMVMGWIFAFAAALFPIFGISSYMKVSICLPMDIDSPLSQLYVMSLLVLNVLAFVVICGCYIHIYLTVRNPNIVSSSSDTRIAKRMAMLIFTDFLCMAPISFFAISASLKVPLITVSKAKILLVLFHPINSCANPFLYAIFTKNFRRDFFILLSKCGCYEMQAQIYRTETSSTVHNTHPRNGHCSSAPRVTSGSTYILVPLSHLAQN

Molecular target: human FSH receptor (human) (UniProt P23945)
Test: cell-based or functional assay

Substance “Gonal-F (from UniProt P01215 25-116; P01225 19-129) (ligand)” has a 50% effective concentration (EC50) of cAMP production in CHO-FSHR cells of 0.104 nM.
